Test results published in US20230025327A1, “CONJUGATES OF TUBULYSIN DERIVATIVES AND CELL BINDING MOLECULES AND METHODS OF MAKING” (Hangzhou DAC Biotech Co., Ltd., priority 2019, published 2023).

Details: 150 mg/Kg single I.V. injection, 12-day experiment, female ICR mice

T-DM1
recovery trend of body weight at the end of the study: recovery trend was not observed
weight loss of the mice (body weight reduction) (FIG. 8): 24%
